# Measurements from patent US10604554B2, “Double-acylated GLP-1 derivatives” (Novo Nordisk A/S, priority 2012, dated 2020).
# Amino acid sequences for entries named in this document (tags omitted). Residues count along the entry.
# UniProt P43220, 24-463: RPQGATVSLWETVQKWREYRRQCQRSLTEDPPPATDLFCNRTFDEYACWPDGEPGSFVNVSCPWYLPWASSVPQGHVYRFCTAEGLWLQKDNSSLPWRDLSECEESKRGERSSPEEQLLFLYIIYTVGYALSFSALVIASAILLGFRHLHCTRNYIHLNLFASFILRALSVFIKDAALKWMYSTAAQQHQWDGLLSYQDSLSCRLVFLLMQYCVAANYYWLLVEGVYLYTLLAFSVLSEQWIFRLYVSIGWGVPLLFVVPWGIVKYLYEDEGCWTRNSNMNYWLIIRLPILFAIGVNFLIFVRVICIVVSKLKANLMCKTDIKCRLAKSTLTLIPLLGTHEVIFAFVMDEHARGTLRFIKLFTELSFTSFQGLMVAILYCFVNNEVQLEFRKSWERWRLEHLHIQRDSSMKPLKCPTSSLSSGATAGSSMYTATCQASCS
# pEC50: −log10 of the molar value. Read-outs that look alike come from different tables or passages of the source.
# How the values were obtained:
# human GLP-1 receptor = molecular target: T1, human GLP-1 receptor (Homo sapiens, UniProt P43220); assay: In vitro potency (CRE luciferase; whole cells); type: cell-based; set-up: EC50/pM (ratio 1% HSA/0% HSA): unit not given here; conditions: for pEC50: BHK cells
# T1 construct: expressed in transfected cells; host or cells: BHK cells, clone FCW467-12A/KZ10-1 (parent line BHKTS13), further transfected with CRE luciferase
# Procedure: The purpose of this example is to test the activity, or potency, of the GLP-1 derivatives in vitro. The in vitro potency is the measure of human GLP-1 receptor activation in a whole cell assay.
# In vitro potency was determined by measuring the response of human GLP-1 receptor in a reporter gene assay. The assay was performed in a stably transfected BHK cell line that expresses the human GLP-1 receptor and contains the DNA for the cAMP response element (CRE) coupled to a promoter and the gene for firefly luciferase (CRE luciferase). When the human GLP-1 receptor was activated it results in the production of cAMP, which in turn results in the luciferase protein being expressed. When assay incubation was completed the luciferase substrate (luciferin) was added and the enzyme converts luciferin to oxyluciferin and produces bioluminescence. The luminescence was measured and was the readout for the assay.
# An increase of the in vitro potency, EC50 value, in the presence of serum albumin indicates an affinity to serum albumin and represents a method to predict a protracted pharmacokinetic profile of the test substance in animal models.
# The cells were cultured at 5% CO2 in cell culture medium. They were aliquoted and stored in liquid nitrogen. Before each assay an aliquot was taken up and washed twice in PBS before being suspended at the desired concentration in the assay specific buffer.
# The following chemicals were used in the assay: Pluronic F-68 (10%) (Gibco 2404), human serum albumin (HSA) (Sigma A9511), ovalbumin (Sigma A5503), DMEM w/o phenol red (Gibco 11880-028), 1 M Hepes (Gibco 15630), Glutamax 100× (Gibco 35050) and steadylite plus (PerkinElmer 6016757).
# 1) Cell stocks were thawed in a 37° C. water bath. […]
# 3) The cells were counted and adjusted to 5×10^3 cells/50 μl (1×10^5 cells/ml) in assay medium. […]
# 4) Stocks of the test compounds and reference compounds were diluted to a concentration of 0.2 μM in 0% assay buffer for the 0% HSA CRE luciferase assay and 1% assay buffer for the HSA CRE luciferase assay. […] 10) Each assay plate was read in a Packard TopCount NXT instrument. […]
# in vivo = conditions: male, Göttingen, minipig, iv
# [1] = system: Landrace Yorkshire Duroc (LYD) pigs; assay: Pharmacodynamic (PD) study in pigs, food intake; type: in vivo, pig; conditions: single s.c. dose 3.0 nmol/kg
# Procedure: The purpose of this experiment was to investigate the effect of a couple of Example compounds on food intake in pigs. This was done in a pharmacodynamic (PD) study as described below, in which food intake was measured from 1 to 4 days after administration of a single dose of the GLP-1 derivative, as compared to a vehicle-treated control group.
# Female Landrace Yorkshire Duroc (LYD) pigs, approximately 3 months of age, weighing approximately 30-35 kg were used (n=3-4 per group). The animals were housed in a group for approximately 1 week during acclimatisation to the animal facilities. During the experimental period the animals were placed in individual pens at least 2 days before dosing and during the entire experiment for measurement of individual food intake. The animals were fed ad libitum with pig fodder (Svinefoder Danish Top) at all times both during the acclimatisation and the experimental period. Food intake was monitored on line by logging the weight of fodder every 15 minutes. The system used was Mpigwin (Ellegaard Systems, Faaborg, Denmark).
# The phosphate buffer serves as vehicle. Animals are dosed with a single subcutaneous dose of the GLP-1 derivative or vehicle (dose volume 0.025 ml/kg) on the morning of day 1, and food intake is measured for 1 day after dosing. On the last day of each study, 1-4 days after dosing, a blood sample for measurement of plasma exposure of the GLP-1 derivative is taken from the heart in anaesthetised animals. The animals are thereafter euthanised with an intra-cardial overdose of pentobarbitone.
# Food intake is calculated as mean±SEM food intake in 24 h intervals (0-24 h, 24-48 h, and 48-72 h). In Table 6 below the food intake is indicated as percentage of the food intake of the vehicle group in the same time interval (dosage 3.0 nmol/kg).
# Statistical comparisons of the food intake in the 24 h intervals in the vehicle vs. GLP-1 derivative group are done using two-way-ANOVA repeated measures, followed by Bonferroni post-test.
compound,measurement,setting,value
"CC[C@H](C)[C@H](NC(=O)[C@H](Cc1ccccc1)NC(=O)[C@H](CCC(=O)O)NC(=O)[C@H](CCCCNC(=O)[C@@H](N)CCCCNC(=O)[C@@H](N)CCCCNC(=O)CC[C@H](NC(=O)CCCCCCCCCCCCCCC(=O)O)C(=O)O)NC(=O)[C@H](C)NC(=O)[C@H](C)NC(=O)[C@H](CCC(N)=O)NC(=O)CNC(=O)[C@H](CCC(=O)O)NC(=O)[C@H](CC(C)C)NC(=O)[C@H](Cc1ccc(O)cc1)NC(=O)[C@H](CO)NC(=O)[C@H](CO)NC(=O)[C@@H](NC(=O)[C@H](CC(=O)O)NC(=O)[C@H](CO)NC(=O)[C@@H](NC(=O)[C@H](Cc1ccccc1)NC(=O)[C@@H](NC(=O)CNC(=O)[C@H](CCC(=O)O)NC(=O)C(C)(C)NC(=O)[C@@H](N)Cc1c[nH]cn1)[C@@H](C)O)[C@@H](C)O)C(C)C)C(=O)N[C@@H](C)C(=O)N[C@@H](Cc1c[nH]c2ccccc12)C(=O)N[C@@H](CC(C)C)C(=O)N[C@H](C(=O)N[C@@H](CCCNC(=N)N)C(=O)NCC(=O)N[C@@H](CCCNC(=N)N)C(=O)N[C@@H](CCCCNC(=O)[C@@H](N)CCCCNC(=O)[C@@H](N)CCCCNC(=O)CC[C@H](NC(=O)CCCCCCCCCCCCCCC(=O)O)C(=O)O)C(=O)O)C(C)C [Example 6, N^ε26-[(2S)-2-amino-6-[[(2S)-2-amino-6-[[(4S)-4-carboxy-4-(15-carboxypentadecanoylamino)butanoyl]amino]hexanoyl]amino]hexanoyl], N^ε37-[(2S)-2-amino-6-[[(2S)-2-amino-6-[[(4S)-4-carboxy-4-(15-carboxypentadecanoylamino)butanoyl]amino]hexanoyl]amino]hexanoyl]-[Aib^8,Arg^34,Lys^37]-GLP-1-(7-37)-peptide]",pEC50,"human GLP-1 receptor; 0% HSA, read-out: In vitro potency (CRE luciferase) EC50 (0% HSA)",11.48
same,pEC50,"human GLP-1 receptor; In vitro potency (CRE luciferase) EC50 (1% HSA), 1% HSA",8.34
same,EC50/pM (ratio 1% HSA/0% HSA),human GLP-1 receptor; ratio of EC50 at 1% HSA to EC50 at 0% HSA,1508
same,half-life,in vivo,98 h
same,"PD in pig, food intake (% of vehicle) for hours 0-24",[1]; 0-24 h,84 % of vehicle
same,"PD in pig, food intake (% of vehicle) for hours 24-48",[1]; 24-48 h,85 % of vehicle
same,"PD in pig, food intake (% of vehicle) for hours 48-72",[1]; 48-72 h,73 % of vehicle
